Binding of CDR-mutated scFvs to a peptide of the spike HR2 region

Source: Li et al. 2023 (doi:10.1038/s41467-023-39022-2), MIT Lincoln Laboratory and A-Alpha Bio; data file from the FLAb repository.

Binding partner: SARS-CoV-2 spike HR2 peptide, sequence PDVDLGDISGINAS.

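The starting antibody came from a phage panning campaign against this peptide. These sequences belong to a second round, designed from the earlier measurements on random variants of the parent. Group labels follow the data file (Ctrl: baseline library sampled from a position-specific scoring matrix, with some repeated check sequences; Rand: our label for a block that the file lists under HC and that is probably the random mutants of the ten best first-round binders; En: ensemble of fine-tuned language models; GP: Gaussian process model; HC: hill climbing; Gen: genetic algorithm; Gibbs: Gibbs sampling; a sequence that several methods proposed may carry one label only). In AlphaSeq, yeast of one mating type display the scFv and yeast of the other type display the target. The frequency of each diploid, read from paired DNA barcodes, reflects how well the two displayed proteins bind. Read counts were normalised to the haploid input and turned into Kd by a linear fit to BCL2-family pairs of known affinity, for each replicate. The assay was run in six technical replicates.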

Each scFv is VH, a 15-residue (Gly4Ser)3 linker, VL, as in the parent Ab-14, and differs from it in the CDRs of the light chain only.
VH: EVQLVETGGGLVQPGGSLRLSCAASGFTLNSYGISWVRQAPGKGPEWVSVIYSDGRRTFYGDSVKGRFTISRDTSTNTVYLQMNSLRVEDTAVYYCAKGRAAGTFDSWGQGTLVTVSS
VL: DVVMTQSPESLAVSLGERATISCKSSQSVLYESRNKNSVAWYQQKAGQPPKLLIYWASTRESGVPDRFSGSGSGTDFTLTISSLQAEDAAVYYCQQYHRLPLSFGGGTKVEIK

Variants are written as CDR1, CDR2 and CDR3 of the light chain (limits as in the source). Parent: KSSQSVLYESRNKNSVA, WASTRES, QQYHRLPLS.
Values are log10 of the apparent Kd in nM; lower means stronger binding.
An entry "nd" has no value in the source: the pair was not observed among the diploids in that replicate. This suggests poor binding but is not conclusive.
Values of this round are not directly comparable with the first-round values of the same sequences.
The authors averaged sequences with at least three values out of six and counted those with two or fewer as poor binders.
Empty control strains, which show no peptide, gave a signal in 4% of pairings with all light chain designs; the median was 2.64 and 95% of these signals were weaker than 1.59. No background was subtracted. Also given: how often the same scFv was detected with the empty control strains, with their mean in brackets.

{"CDR-L1": "NVGQSMDGEMRNKNSVA", "CDR-L2": "HQSTRED", "CDR-L3": "QHYHRLPLS", "group": "En_HC", "log10 Kd (nM) by replicate": "1.42 / 0.92 / 0.87 / 1.83 / 0.82 / 0.54", "signal with controls": "0/18"}
{"CDR-L1": "KLMQSTLYESRMANNVA", "CDR-L2": "YASTREE", "CDR-L3": "QQYHRLPLS", "group": "GP_Gibbs", "log10 Kd (nM) by replicate": "1.10 / 0.93 / 0.80 / 1.36 / 0.90 / 0.82", "signal with controls": "0/18"}
{"CDR-L1": "KLSCSEGMESRNSNSVA", "CDR-L2": "HASKRES", "CDR-L3": "QDYHRLPLS", "group": "GP_Gibbs", "log10 Kd (nM) by replicate": "1.17 / 0.89 / 0.42 / 0.98 / 0.92 / 1.32", "signal with controls": "0/18"}
{"CDR-L1": "TLVQSVMGSSRTKNSVA", "CDR-L2": "NAETRED", "CDR-L3": "QHYHRLPLS", "group": "En_HC", "log10 Kd (nM) by replicate": "0.61 / 0.69 / nd / 2.01 / 2.23 / 1.60", "signal with controls": "0/18"}
{"CDR-L1": "KVSEFMRGLMQHKDSIA", "CDR-L2": "DNVTRNK", "CDR-L3": "QQYDRLPLS", "group": "En_Gen", "log10 Kd (nM) by replicate": "2.41 / 2.51 / 1.67 / 2.38 / 2.14 / 1.70", "signal with controls": "1/18 (4.74)"}
{"CDR-L1": "KLSMSFLYESRNKNSVA", "CDR-L2": "GASTRES", "CDR-L3": "QQYHRLTLS", "group": "GP_HC", "log10 Kd (nM) by replicate": "-0.35 / -0.28 / -0.68 / -0.72 / -0.56 / -0.60", "signal with controls": "0/18"}
{"CDR-L1": "KVSIFMLTMDNAWSSIA", "CDR-L2": "NMAAERT", "CDR-L3": "QQYQRLPLS", "group": "En_Gibbs", "log10 Kd (nM) by replicate": "nd / nd / nd / nd / nd / nd", "signal with controls": "0/18"}
{"CDR-L1": "QLSMNLTIYDQEQGNVA", "CDR-L2": "HGEMRTE", "CDR-L3": "QQYHKLPLI", "group": "En_Gibbs", "log10 Kd (nM) by replicate": "1.85 / 3.33 / 2.60 / 1.76 / 3.02 / 2.57", "signal with controls": "0/18"}
{"CDR-L1": "KLSQSVEYESRNKNSVA", "CDR-L2": "NASTREQ", "CDR-L3": "QQYHRLPLS", "group": "GP_Gen", "log10 Kd (nM) by replicate": "-0.21 / -0.31 / -0.41 / -0.24 / -0.39 / -0.19", "signal with controls": "3/18 (3.63)"}
{"CDR-L1": "KLQQSNLYESRNKNSVA", "CDR-L2": "NASQRES", "CDR-L3": "QQYHRLPLS", "group": "GP_Gen", "log10 Kd (nM) by replicate": "0.62 / -0.05 / -0.13 / -0.15 / -0.02 / -0.27", "signal with controls": "1/18 (1.46)"}
{"CDR-L1": "KSSQSVLVEQYNKNSVA", "CDR-L2": "GASTRES", "CDR-L3": "QQYHRLPES", "group": "Ctrl", "log10 Kd (nM) by replicate": "2.15 / nd / nd / nd / nd / nd", "signal with controls": "0/18"}
{"CDR-L1": "MITEGQLGENKNSSNIA", "CDR-L2": "SQNQKTD", "CDR-L3": "QQYQRLPLI", "group": "En_Gibbs", "log10 Kd (nM) by replicate": "1.62 / 0.64 / 1.11 / 0.91 / 0.95 / 1.33", "signal with controls": "1/18 (2.43)"}
{"CDR-L1": "KSGQGVLYESRNKNSVA", "CDR-L2": "GASQRWF", "CDR-L3": "QQYHRLPLS", "group": "Rand", "log10 Kd (nM) by replicate": "0.36 / 0.34 / 0.79 / 0.46 / 0.30 / 1.50", "signal with controls": "0/18"}
{"CDR-L1": "KFSQSFLYESRNVNSVA", "CDR-L2": "GASTRES", "CDR-L3": "QQYHRLPLS", "group": "GP_HC", "log10 Kd (nM) by replicate": "0.10 / -0.11 / -0.04 / -0.15 / -0.09 / -0.08", "signal with controls": "1/18 (2.79)"}
{"CDR-L1": "KLSQSVLYESRNKNSVA", "CDR-L2": "DAHTRES", "CDR-L3": "QQYHRLPLS", "group": "GP_Gen", "log10 Kd (nM) by replicate": "-0.10 / -0.18 / -0.19 / -0.20 / -0.25 / -0.16", "signal with controls": "0/18"}
{"CDR-L1": "GSSQSVLYESRNKNSVA", "CDR-L2": "WASTRES", "CDR-L3": "QQYHRLPLS", "group": "Ctrl", "log10 Kd (nM) by replicate": "nd / nd / nd / nd / nd / nd", "signal with controls": "0/18"}
{"CDR-L1": "KLSQSWLYESRNKNNVA", "CDR-L2": "QASTRES", "CDR-L3": "QQYHRLPLS", "group": "GP_Gen", "log10 Kd (nM) by replicate": "0.05 / -0.22 / -0.21 / -0.24 / -0.28 / -0.11", "signal with controls": "1/18 (2.51)"}
{"CDR-L1": "MVSQLMNLGQFAINSVA", "CDR-L2": "QATIRNS", "CDR-L3": "QQYDRLPLA", "group": "En_Gen", "log10 Kd (nM) by replicate": "nd / nd / nd / nd / 2.40 / 2.19", "signal with controls": "0/18"}
{"CDR-L1": "MLAQPQKELGYAKDAVA", "CDR-L2": "DGSIRLG", "CDR-L3": "QQYHRLPLV", "group": "En_Gibbs", "log10 Kd (nM) by replicate": "0.26 / 0.06 / 0.22 / -0.03 / 0.15 / 0.35", "signal with controls": "0/18"}
{"CDR-L1": "KVSQSDLYESRNKNNVA", "CDR-L2": "EASTRES", "CDR-L3": "QQYHRLPLS", "group": "GP_Gen", "log10 Kd (nM) by replicate": "0.79 / 1.04 / 0.93 / 0.63 / 0.84 / 1.34", "signal with controls": "1/18 (2.64)"}
{"CDR-L1": "KISQLFNVGTKNTNSLA", "CDR-L2": "EMNTRGM", "CDR-L3": "QDYHRLPLS", "group": "En_HC", "log10 Kd (nM) by replicate": "1.33 / 1.04 / 1.45 / 1.15 / 0.98 / 1.26", "signal with controls": "1/18 (2.72)"}
{"CDR-L1": "MISMMVGTKGYNKNSVA", "CDR-L2": "NAETRED", "CDR-L3": "QQYHRLPLS", "group": "En_HC", "log10 Kd (nM) by replicate": "1.00 / 1.35 / 1.36 / 1.06 / 1.75 / 1.12", "signal with controls": "1/18 (1.87)"}
{"CDR-L1": "KLQNSFLYESRQSNNVA", "CDR-L2": "EASQRES", "CDR-L3": "QQYHRLPLS", "group": "GP_Gibbs", "log10 Kd (nM) by replicate": "0.55 / 0.24 / 0.35 / 0.24 / 0.21 / 0.39", "signal with controls": "0/18"}
{"CDR-L1": "KFSQSVLEESRNKNSVA", "CDR-L2": "WASTRES", "CDR-L3": "QQYHRLPLS", "group": "Ctrl", "log10 Kd (nM) by replicate": "1.43 / 0.73 / 1.48 / 1.53 / 0.35 / 1.09", "signal with controls": "1/18 (2.03)"}
{"CDR-L1": "TLYGLTNSMSKNKNNVA", "CDR-L2": "EMSTREL", "CDR-L3": "QQYDRLPLA", "group": "En_Gen", "log10 Kd (nM) by replicate": "0.58 / 0.30 / 0.33 / 0.40 / 0.87 / 0.55", "signal with controls": "0/18"}
{"CDR-L1": "TISGVMQQMTHSKSNVA", "CDR-L2": "EVSTRLD", "CDR-L3": "QQYVRLPLA", "group": "En_Gen", "log10 Kd (nM) by replicate": "0.46 / 0.72 / 0.43 / 0.44 / 0.63 / 1.38", "signal with controls": "0/18"}
{"CDR-L1": "KSSQSVLYESRNKNSVA", "CDR-L2": "WASTRES", "CDR-L3": "QQYYRLPLS", "group": "Ctrl", "log10 Kd (nM) by replicate": "nd / 1.77 / nd / 2.35 / 2.15 / 2.45", "signal with controls": "0/18"}
{"CDR-L1": "NMVEDEAGDQKNSGNIA", "CDR-L2": "SVDQRED", "CDR-L3": "QQYQKLPLM", "group": "En_Gibbs", "log10 Kd (nM) by replicate": "-2.50 / -1.25 / -1.07 / -2.21 / -2.04 / -1.94", "signal with controls": "0/18"}
{"CDR-L1": "TISEVYNQALGMRNSVA", "CDR-L2": "NNQTRED", "CDR-L3": "QQYDRLPLS", "group": "En_Gen", "log10 Kd (nM) by replicate": "nd / nd / nd / nd / nd / nd", "signal with controls": "0/18"}

Top 5 of the variants detected in all replicates, tightest first:

| CDR-L1 | CDR-L2 | CDR-L3 | group | log10 Kd (nM) by replicate | signal with controls |
|---|---|---|---|---|---|
| NMVEDEAGDQKNSGNIA | SVDQRED | QQYQKLPLM | En_Gibbs | -2.50 / -1.25 / -1.07 / -2.21 / -2.04 / -1.94 | 0/18 |
| KLSMSFLYESRNKNSVA | GASTRES | QQYHRLTLS | GP_HC | -0.35 / -0.28 / -0.68 / -0.72 / -0.56 / -0.60 | 0/18 |
| KLSQSVEYESRNKNSVA | NASTREQ | QQYHRLPLS | GP_Gen | -0.21 / -0.31 / -0.41 / -0.24 / -0.39 / -0.19 | 3/18 (3.63) |
| KLSQSVLYESRNKNSVA | DAHTRES | QQYHRLPLS | GP_Gen | -0.10 / -0.18 / -0.19 / -0.20 / -0.25 / -0.16 | 0/18 |
| KLSQSWLYESRNKNNVA | QASTRES | QQYHRLPLS | GP_Gen | 0.05 / -0.22 / -0.21 / -0.24 / -0.28 / -0.11 | 1/18 (2.51) |